Assay results as given in ChEMBL document CHEMBL5518202, “Discovery of a Potent Nicotinamide Phosphoribosyltransferase Activator for Improving Aging-associated Dysfunctions” (J Med Chem, 2024).

Assays:
HUVEC = assay: Cytotoxicity against HUVEC cells assessed as reduction in cell viability at 0.0391 to 10 uM incubated for 72 hrs in presence of FK866 by CCK-8 assay; assay type: toxicity, cell-based; settings: human, dose 0.0391-10 µM
[1] = Toxicity in wild type Caenorhabditis elegans N2 at 100 uM by microscopic analysis

## O=C(NCc1ccncc1)Nc1ccc(S(=O)(=O)NCc2cc(F)ccc2F)cc1
HUVEC
  Activity: Non-Toxic
[1]
  Activity: Non-Toxic
